Measurements taken from patent US8202879B2, “Quinazoline derivatives having tyrosine kinase inhibitory activity” (Shionogi & Co., Ltd., priority 2005, dated 2012).

Chains of the proteins cited; added tags and fusions are not shown. Residues count along the entry.
UniProt P04626, 23-1255 limits assumed: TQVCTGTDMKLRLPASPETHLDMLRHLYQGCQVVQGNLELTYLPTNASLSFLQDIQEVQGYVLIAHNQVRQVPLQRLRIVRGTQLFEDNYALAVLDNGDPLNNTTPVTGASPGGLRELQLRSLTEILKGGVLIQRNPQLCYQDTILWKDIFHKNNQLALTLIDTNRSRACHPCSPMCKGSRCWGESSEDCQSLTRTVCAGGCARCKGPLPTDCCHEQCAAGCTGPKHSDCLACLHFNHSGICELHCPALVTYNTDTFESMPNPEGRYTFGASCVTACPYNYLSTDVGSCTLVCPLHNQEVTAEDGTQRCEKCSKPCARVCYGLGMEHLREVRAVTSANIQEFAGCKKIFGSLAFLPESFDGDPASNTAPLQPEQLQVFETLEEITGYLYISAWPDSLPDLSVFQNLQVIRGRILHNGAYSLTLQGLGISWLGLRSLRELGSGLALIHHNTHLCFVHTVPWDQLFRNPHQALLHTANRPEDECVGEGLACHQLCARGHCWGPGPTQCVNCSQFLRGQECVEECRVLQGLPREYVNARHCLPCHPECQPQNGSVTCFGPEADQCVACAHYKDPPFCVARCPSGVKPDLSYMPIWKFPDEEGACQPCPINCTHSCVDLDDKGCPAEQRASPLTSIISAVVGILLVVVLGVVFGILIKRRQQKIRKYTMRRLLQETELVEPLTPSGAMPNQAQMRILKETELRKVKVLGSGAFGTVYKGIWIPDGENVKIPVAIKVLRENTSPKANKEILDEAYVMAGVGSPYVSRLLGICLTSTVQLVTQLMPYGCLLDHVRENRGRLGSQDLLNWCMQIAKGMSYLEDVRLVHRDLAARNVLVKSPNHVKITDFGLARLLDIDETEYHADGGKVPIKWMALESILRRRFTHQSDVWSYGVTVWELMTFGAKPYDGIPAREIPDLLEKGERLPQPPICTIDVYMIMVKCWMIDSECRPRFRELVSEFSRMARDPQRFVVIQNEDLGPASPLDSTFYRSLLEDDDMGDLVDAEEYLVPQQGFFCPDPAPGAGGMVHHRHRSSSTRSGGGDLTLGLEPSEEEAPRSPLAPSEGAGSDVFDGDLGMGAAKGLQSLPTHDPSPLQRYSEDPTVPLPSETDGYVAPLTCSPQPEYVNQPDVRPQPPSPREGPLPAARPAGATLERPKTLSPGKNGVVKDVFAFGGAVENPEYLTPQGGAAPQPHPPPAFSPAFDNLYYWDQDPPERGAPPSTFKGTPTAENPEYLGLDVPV

Tests used:
[1] = test system: BT-474; assay: In vitro cell proliferation inhibition, WST assay; settings: read-out: BT-474 (nM) proliferation inhibitory activity (IC50 value), BT-474 cells, cultured for 3 days
[2] = biological target: HER2 (Homo sapiens, UniProt P04626); assay: Enzyme inhibitory activity on HER2 (time resolution fluorescence, biotinylated poly-Glu-Tyr substrate); settings: read-out: HER2(nM) inhibitory activity (IC50 value); enzyme reaction at room temperature for 60 minutes

Row | SMILES | IC50 [1] [nM] | IC50 [2] [nM]
1 | CC#C/C(=N\OC[C@@H]1COCCN1)c1ccc2ncnc(Nc3ccc(OCc4cccc(F)c4)c(Cl)c3)c2c1 [VIII-101] | 9 | –
2 | CC#C/C(=N\OC[C@H]1COCCN1)c1ccc2ncnc(Nc3ccc(OCc4cccc(F)c4)c(Cl)c3)c2c1 [VIII-102] | 10 | –
3 | CC#C/C(=N\OC[C@@H]1COCCN1)c1ccc2ncnc(Nc3ccc(OCc4ccccn4)c(Cl)c3)c2c1 [VIII-169] | 13 | 5.9
